Reference: patent US10851093B2, “Tyrosine kinase inhibitors” (Rigel Pharmaceuticals, Inc., priority 2018, dated 2020)

By UniProt entry, the sequences of proteins in these tests, tags left out. Residues count along the entry.
UniProt P30530, 26-894 limits assumed: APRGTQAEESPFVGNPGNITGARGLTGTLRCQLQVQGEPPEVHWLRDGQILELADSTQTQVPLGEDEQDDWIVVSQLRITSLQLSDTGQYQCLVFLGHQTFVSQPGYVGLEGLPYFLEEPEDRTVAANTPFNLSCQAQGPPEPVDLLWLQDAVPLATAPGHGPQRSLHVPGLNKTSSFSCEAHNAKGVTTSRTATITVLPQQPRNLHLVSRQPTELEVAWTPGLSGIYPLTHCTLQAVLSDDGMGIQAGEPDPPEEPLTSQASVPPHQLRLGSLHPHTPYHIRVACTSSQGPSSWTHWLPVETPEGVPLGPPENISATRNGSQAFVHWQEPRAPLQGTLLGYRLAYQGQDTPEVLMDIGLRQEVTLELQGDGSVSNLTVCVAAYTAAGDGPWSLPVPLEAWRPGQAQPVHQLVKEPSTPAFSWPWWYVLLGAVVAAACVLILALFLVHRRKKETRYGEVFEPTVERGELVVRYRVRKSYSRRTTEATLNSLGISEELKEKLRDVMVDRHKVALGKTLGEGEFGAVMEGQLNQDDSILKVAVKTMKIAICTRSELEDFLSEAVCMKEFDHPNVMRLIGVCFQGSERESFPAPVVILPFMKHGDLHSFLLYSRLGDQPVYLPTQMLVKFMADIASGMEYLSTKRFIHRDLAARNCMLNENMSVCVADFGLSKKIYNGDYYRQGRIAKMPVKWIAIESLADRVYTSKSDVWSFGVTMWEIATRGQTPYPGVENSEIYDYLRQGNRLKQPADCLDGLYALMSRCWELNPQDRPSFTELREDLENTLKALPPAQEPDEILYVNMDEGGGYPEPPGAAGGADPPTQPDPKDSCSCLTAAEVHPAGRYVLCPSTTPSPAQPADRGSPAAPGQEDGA
UniProt Q12866, 21-999 limits assumed: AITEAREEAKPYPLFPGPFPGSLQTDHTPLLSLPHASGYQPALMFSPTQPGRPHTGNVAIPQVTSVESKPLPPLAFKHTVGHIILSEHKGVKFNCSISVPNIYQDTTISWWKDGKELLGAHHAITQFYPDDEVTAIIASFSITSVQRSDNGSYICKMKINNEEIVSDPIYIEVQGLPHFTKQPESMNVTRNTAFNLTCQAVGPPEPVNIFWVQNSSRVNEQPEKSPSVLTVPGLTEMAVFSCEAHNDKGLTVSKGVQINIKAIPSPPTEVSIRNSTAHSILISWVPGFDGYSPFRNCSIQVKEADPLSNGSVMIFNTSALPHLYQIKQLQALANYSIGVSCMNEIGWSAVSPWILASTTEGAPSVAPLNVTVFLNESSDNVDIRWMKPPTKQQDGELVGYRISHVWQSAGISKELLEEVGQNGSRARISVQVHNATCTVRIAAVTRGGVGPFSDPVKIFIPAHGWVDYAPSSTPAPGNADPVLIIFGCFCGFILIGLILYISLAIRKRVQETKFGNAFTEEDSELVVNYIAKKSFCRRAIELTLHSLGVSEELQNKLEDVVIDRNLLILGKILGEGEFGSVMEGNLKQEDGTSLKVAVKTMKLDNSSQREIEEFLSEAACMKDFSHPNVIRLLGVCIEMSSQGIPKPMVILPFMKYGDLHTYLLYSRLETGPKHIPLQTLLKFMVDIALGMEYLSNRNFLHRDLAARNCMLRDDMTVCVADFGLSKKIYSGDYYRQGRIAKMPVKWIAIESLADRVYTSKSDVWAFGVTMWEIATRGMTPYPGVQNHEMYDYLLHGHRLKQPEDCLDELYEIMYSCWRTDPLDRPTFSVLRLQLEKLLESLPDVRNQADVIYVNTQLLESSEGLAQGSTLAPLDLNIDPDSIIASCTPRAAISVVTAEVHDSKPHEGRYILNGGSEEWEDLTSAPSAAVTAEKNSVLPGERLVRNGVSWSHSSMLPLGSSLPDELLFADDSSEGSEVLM

Columns and labels:
Axl = Axl (Homo sapiens, UniProt P30530); test: Phospho-AKT HTRF, HUVEC, Axl ABX-L, 8 pt; settings: read-out: Phospho-AKT HTRF, HUVEC, Axl ABX-L, 8 pt, HUVEC cells, pAkt(Ser473) HTRF, Axl ABX-L stimulation
Description: [The source words this procedure for another target and reports this target under the same test.] (§1) Example 13: PAKT HTRF-HUVEC Assay
(§2) Seed HUVECs (10K cells/well) in EBM-2 complete media (EBM-2 basal medium plus EGM-2 BulletKit supplements) overnight at 37° C., 5% CO2 in Costar 96-well white clear-bottom plates. Remove culture media and starve cells for 3-4 hours in 50 μL/well EBM-2 basal medium. Perform serial dilution of compounds in DMSO from 2.5 mM in 4-fold dilutions, and then dilute 1:125 in EBM-2 basal media. Mix 50 μL/well 2× compounds with 50 μL/well HUVECs in duplicate in Costar 96-well white clear-bottom plates. Incubate plates for 1 hour at 37° C., 5% CO2. Cross-link anti-human MerTK antibody to Biotin-SP-conjugated anti-mouse IgG antibody (1:1) to give final concentrations of 5 μg/mL of anti-human MerTK-XL. Stimulate HUVECs with 25 μL/well 5× anti-human MerTK-XL to give final concentrations of 1 ug/mL for 10 minutes at 37° C., 5% CO2. Completely remove media and lyse HUVECs with 40 uL:WELL per well of Cisbio HTRF 1× lysis buffer. Performed pAkt(Ser473) HTRF assay in ProxiPlate-384 Plus, white 384-shallow well microplate according to the vendor protocol and read plates with a SpectralMax Paradigm plate reader. Enter the HTRF values into Athena (Rigel) for curve fitting, EC50 calculation, and database storage.

MerTK = MerTK (Homo sapiens, UniProt Q12866); test: Phospho-AKT HTRF, HUVEC, Mer-XL, 8 pt (pAKT HTRF-HUVEC assay, anti-human MerTK-XL stimulation); settings: read-out: Phospho-AKT HTRF, HUVEC, Mer-XL, 8 pt, HUVEC cells, pAkt(Ser473) HTRF, anti-human MerTK-XL stimulation 1 ug/mL 10 minutes
Description: as §1, §2

EC50 (Axl): 6.7 nM | EC50 (MerTK): 4.6 nM
Structure (SMILES): COc1cc2c(Oc3ccc(NC(=O)c4nc(-c5ccccc5)c5c(n4)C4CCN5CC4)nc3)ccnc2cc1OCCCN1CCCCC1
